The values that follow are results of earlier work, collected in PubChem BioAssay AID977610.

A word on the Ki: it is a measure of affinity in units of concentration, obtained from inhibition or displacement.

What all share (assay): PubChem AID 977610
Data set [1] has as its target Retinol-binding protein 4 (RBP4). The note with it: PDB protein-ligand complexes, literature Ki; protein: Retinol-binding protein 4 (RBP4); PDB entry 3FMZ.
In the next data set the target is Beta-hexosaminidase. The note with it: PDB protein-ligand complexes, literature Ki; protein: Beta-hexosaminidase; PDB entry 3SUV.
The next data set concerns the target Cathepsin B. As to conditions: PDB protein-ligand complexes, literature Ki; protein: Cathepsin B; PDB entry 3AI8.
Data set [2] concerns the target rat androgen receptor ligand binding domain. As to conditions: PDB protein-ligand complexes, literature Ki; protein: rat androgen receptor ligand binding domain; PDB entry 3G0W.
Data set [3] deals with calmodulin-sensitive adenylate cyclase. As to conditions: PDB protein-ligand complexes, literature Ki; protein: calmodulin-sensitive adenylate cyclase; PDB entry 1S26.
Data set [4] concerns the target Phosphopantetheine Adenylyltranferase from M. tuberculosis(MtPPAT). The note with it: PDB protein-ligand complexes, literature Ki; protein: Phosphopantetheine Adenylyltranferase from M. tuberculosis(MtPPAT); PDB entry 3NBA.
Data set [5] has as its target RAC-ALPHA SERINE/THREONINE-PROTEIN KINASE, PKB-alpha PH domain. As to conditions: PDB protein-ligand complexes, literature Ki; protein: RAC-ALPHA SERINE/THREONINE-PROTEIN KINASE, PKB-alpha PH domain; PDB entry 2UVM.
In a further data set the target is Lipoprotein E, rP4. As to conditions: PDB protein-ligand complexes, literature Ki; protein: Lipoprotein E, rP4; PDB entry 3OCZ.
Data set [6] concerns the target Plasmodium falciparum M17 leucyl aminopeptidase. As to conditions: PDB protein-ligand complexes, literature Ki; protein: Plasmodium falciparum M17 leucyl aminopeptidase; PDB entry 3KR5.
The target of data set [7] is Protein tyrosine phosphatase 1B (PTP-1B). The note with it: PDB protein-ligand complexes, literature Ki; protein: Protein tyrosine phosphatase 1B (PTP-1B); PDB entry 2ZN7.
Data set [8] has as its target arylmalonate decarboxylase (AMDase) from Bordatella bronchiseptic. The note with it: PDB protein-ligand complexes, literature Ki; protein: arylmalonate decarboxylase (AMDase) from Bordatella bronchiseptic; PDB entry 3IP8.
In data set [9] the target is FAMILY GH92 INVERTING MANNOSIDASE BT3990. The note with it: PDB protein-ligand complexes, literature Ki; protein: FAMILY GH92 INVERTING MANNOSIDASE BT3990; PDB entry 2WVZ.
The target of another data set is alpha-mannosidase ii. The note with it: PDB protein-ligand complexes, literature Ki; protein: alpha-mannosidase ii; PDB entry 1PS3.
Data set [10] addresses ENDOPEPTIDASE, PEPTIDASE FAMILY M13. As to conditions: PDB protein-ligand complexes, literature Ki; protein: ENDOPEPTIDASE, PEPTIDASE FAMILY M13; PDB entry 3ZUK.
For a further data set, the target named is thermolysin. As to conditions: PDB protein-ligand complexes, literature Ki; protein: thermolysin; PDB entry 1TLP.
Data set [11] addresses Uncharacterized protein C6orf130. The note with it: PDB protein-ligand complexes, literature Ki; protein: Uncharacterized protein C6orf130; PDB entry 2L8R.
For data set [12], the target named is Acylneuraminate cytidylyltransferase. The note with it: PDB protein-ligand complexes, literature Ki; protein: Acylneuraminate cytidylyltransferase; PDB entry 3E81.
The target of data set [13] is Plasmodium falciparum ODCase. As to conditions: PDB protein-ligand complexes, literature Ki; protein: Plasmodium falciparum ODCase; PDB entry 2Q8Z.
Data set [14] deals with chimeric PDE5/PDE6 catalytic domain. The note with it: PDB protein-ligand complexes, literature Ki; protein: chimeric PDE5/PDE6 catalytic domain; PDB entry 3JWR.
Data set [15] deals with RNA-directed RNA polymerase NS5(YF-). As to conditions: PDB protein-ligand complexes, literature Ki; protein: RNA-directed RNA polymerase NS5(YF-); PDB entry 3EVF.
The target of data set [16] is Fructose-bisphosphate aldolase(Class II Fba from h. pylori). As to conditions: PDB protein-ligand complexes, literature Ki; protein: Fructose-bisphosphate aldolase(Class II Fba from h. pylori); PDB entry 3N9R.
Data set [17] concerns the target Estradiol 17-beta-dehydrogenase 1. As to conditions: PDB protein-ligand complexes, literature Ki; protein: Estradiol 17-beta-dehydrogenase 1; PDB entry 3HB4.
Data set [18] concerns the target Farnesyl pyrophosphate synthase. The note with it: PDB protein-ligand complexes, literature Ki; protein: Farnesyl pyrophosphate synthase; PDB entry 3RYW.

`O=C(O)c1ccccc1NC(=O)N1CCC(c2ccccc2C(F)(F)F)CC1`: the Ki in data set [1] is 0.0083 µM. With `CC(=O)N[C@H]1CN[C@H](CO)[C@@H](O)[C@@H]1O`, the Ki on Beta-hexosaminidase is 28 µM. Consider `O=[N+]([O-])c1ccc(O)c2ncccc12`, for which, at Cathepsin B, the Ki was 154 µM. On to `Cc1c(N=C2O[C@@H](C(F)(F)F)[C@@H]3[C@@H](O)CCN23)ccc(C#N)c1Cl`, for which, in data set [2], the Ki was 0.0003 µM. As for `Nc1ncnc2c1ncn2[C@@H]1O[C@H](COP(=O)(O)CP(=O)(O)OP(=O)(O)O)[C@@H](O)[C@H]1O`, the results for the Ki in [3] and in [4] were 850 µM and 388 µM, respectively.

As to `O=P(O)(O)Oc1ccc(OP(=O)(O)O)c(OP(=O)(O)O)c1OP(=O)(O)O`, the Ki in [5] was 0.08 µM.

For the compound `Nc1ncnc2c1ncn2[C@@H]1O[C@H](COP(O)(O)=S)[C@@H](O)[C@H]1O`, the Ki on Lipoprotein E, rP4 was 0.035 µM. For the compound `N[C@H](CCc1ccccc1)P(=O)(O)C[C@@H](Cc1ccccc1)C(=O)O`, the Ki in data set [6] was 0.013 µM. With `O=C(O)COc1c(C(=O)O)sc(-c2cccc(N(C(=O)c3ccccc3)C3CCCCC3)c2)c1Br`, in [7], the Ki is 0.013 µM.

As to `O=P(O)(O)Cc1ccccc1`, the Ki in [8] is 5200 µM. As to `O=C1N[C@@H]2[C@@H](O)[C@@H](O)[C@H](O)[C@@H](CO)N2C1=O`, the inhibition constant Ki is 96 µM in [9] and 5200 µM at alpha-mannosidase ii. Consider `CC(C)C[C@H](NP(=O)(O)O[C@@H]1O[C@@H](C)[C@H](O)[C@@H](O)[C@H]1O)C(=O)N[C@@H](Cc1c[nH]c2ccccc12)C(=O)O`, for which the Ki in [10] is 0.035 µM; on thermolysin, 0.028 µM.

`Nc1ncnc2c1ncn2[C@@H]1O[C@H](COP(=O)(O)OP(=O)(O)OC[C@H]2O[C@@H](O)[C@H](O)[C@@H]2O)[C@@H](O)[C@H]1O`: the Ki in [11] was 119 µM. `CC(=O)N[C@H]1[C@H]([C@H](O)[C@H](O)CO)O[C@](O)(C(=O)O)C[C@@H]1O`: the Ki in data set [12] is 37000 µM. Take `N=C1CC(=O)NC(=O)N1[C@@H]1O[C@H](COP(=O)(O)O)[C@@H](O)[C@H]1O`: the Ki in [13] is 2.1 µM. Consider `CC(C)Cn1c(=O)n(C)c(=O)c2[nH]cnc21`, for which the Ki in data set [14] was 0.0085 µM. For the compound `Cn1c[n+]([C@@H]2O[C@H](COP(=O)([O-])O)[C@@H](O)[C@H]2O)c2nc(N)[nH]c(=O)c21`, in data set [15], the Ki was 0.17 µM. Turning to `O=C(COP(=O)(O)O)N(O)CCCCO`, the inhibition constant (Ki) in data set [16] is 0.07 µM. With `C[C@]12CC[C@@H]3c4ccc(O)cc4CC[C@H]3[C@@H]1C[C@H](Cc1cccc(C(N)=O)c1)[C@@H]2O`, the inhibitory constant (Ki) in data set [17] was 0.0009 µM.

Consider `CCCCCCCCCCOc1cncc(CC(P(=O)(O)O)P(=O)(O)O)c1`, for which the inhibition constant Ki in data set [18] is 0.57 µM.
